Cyclic peptide permeability, from CycPeptMPDB

Source: CycPeptMPDB (Li et al. 2023), which took these values from Kelly et al. 2021, doi:10.1021/jacs.0c06115.

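Conditions beyond the assay type are not listed; see the original paper. The list need not hold all peptides of the study. Entries at the database's floor value (log10 P of -10) are not listed.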

PAMPA is the parallel artificial membrane permeability assay, which has no cells and reads passive diffusion. P is given in units of 10^-6 cm/s (from log10 values with two decimals); larger means faster passage.

structure (SMILES)	PAMPA (10^-6 cm/s)
CC(=O)N1CCC[C@@H]1C(=O)N(C)[C@@H](CC(C)C)C(=O)N[C@@H]1C(=O)N(C)[C@@H](CC(C)C)C(=O)N[C@H](CC(C)C)C(=O)N[C@@H](CC(C)C)C(=O)N[C@@H](C)C(=O)N[C@@H](CC(C)C)C(=O)N2CCC[C@@H]2C(=O)O[C@@H]1C	0.087
CC(=O)N[C@@H]1C(=O)N2CCC[C@H]2C(=O)N(C)[C@H](CC(C)C)C(=O)N(C)[C@H](CC(C)C)C(=O)N(C)[C@H](CC(C)C)C(=O)N(C)[C@@H](CC(C)C)C(=O)N(C)[C@H](C)C(=O)N[C@@H](CC(C)C)C(=O)N2CCC[C@@H]2C(=O)O[C@@H]1C	3.4
CC(=O)N1CCC[C@@H]1C(=O)N(C)[C@H](CC(C)C)C(=O)N[C@@H]1C(=O)N(C)[C@H](CC(C)C)C(=O)N(C)[C@H](CC(C)C)C(=O)N[C@H](CC(C)C)C(=O)N(C)[C@H](C)C(=O)N[C@H](CC(C)C)C(=O)N2CCC[C@@H]2C(=O)O[C@@H]1C	1.7
CC(=O)N1CCC[C@@H]1C(=O)N(C)[C@H](CC(C)C)C(=O)N[C@@H]1C(=O)N(C)[C@@H](CC(C)C)C(=O)N(C)[C@@H](CC(C)C)C(=O)N(C)[C@H](CC(C)C)C(=O)N(C)[C@@H](C)C(=O)N[C@H](CC(C)C)C(=O)N2CCC[C@H]2C(=O)O[C@@H]1C	0.89
CC(=O)N1CCC[C@@H]1C(=O)N(C)[C@H](CC(C)C)C(=O)N[C@@H]1C(=O)N[C@@H](CC(C)C)C(=O)N[C@@H](CC(C)C)C(=O)N(C)[C@H](CC(C)C)C(=O)N(C)[C@H](C)C(=O)N[C@@H](CC(C)C)C(=O)N2CCC[C@H]2C(=O)O[C@@H]1C	1.4
CC(=O)N1CCC[C@H]1C(=O)N(C)[C@@H](CC(C)C)C(=O)N[C@@H]1C(=O)N(C)[C@@H](CC(C)C)C(=O)N(C)[C@@H](CC(C)C)C(=O)N[C@@H](CC(C)C)C(=O)N(C)[C@@H](C)C(=O)N[C@H](CC(C)C)C(=O)N2CCC[C@H]2C(=O)O[C@@H]1C	0.83
CC(=O)N1CCC[C@H]1C(=O)N(C)[C@H](CC(C)C)C(=O)N[C@@H]1C(=O)N[C@@H](CC(C)C)C(=O)N(C)[C@H](CC(C)C)C(=O)N(C)[C@H](CC(C)C)C(=O)N(C)[C@@H](C)C(=O)N[C@H](CC(C)C)C(=O)N2CCC[C@@H]2C(=O)O[C@@H]1C	1.9
CC(=O)N1CCC[C@H]1C(=O)N[C@@H]1C(=O)N(C)[C@H](CC(C)C)C(=O)N[C@H](CC(C)C)C(=O)N(C)[C@@H](CC(C)C)C(=O)N[C@H](CC(C)C)C(=O)N(C)[C@@H](C)C(=O)N[C@@H](CC(C)C)C(=O)N2CCC[C@@H]2C(=O)O[C@@H]1C	11
CC(=O)N[C@@H]1C(=O)N2CCC[C@H]2C(=O)N(C)[C@H](CC(C)C)C(=O)N(C)[C@H](CC(C)C)C(=O)N(C)[C@H](CC(C)C)C(=O)N(C)[C@H](CC(C)C)C(=O)N(C)[C@H](C)C(=O)N[C@@H](CC(C)C)C(=O)N2CCC[C@@H]2C(=O)O[C@@H]1C	7.9
CC(=O)N1CCC[C@@H]1C(=O)N(C)[C@H](CC(C)C)C(=O)N[C@@H]1C(=O)N[C@H](CC(C)C)C(=O)N[C@H](CC(C)C)C(=O)N[C@H](CC(C)C)C(=O)N[C@@H](C)C(=O)N[C@H](CC(C)C)C(=O)N2CCC[C@H]2C(=O)O[C@@H]1C	0.52
CC(=O)N1CCC[C@H]1C(=O)N(C)[C@H](CC(C)C)C(=O)N[C@@H]1C(=O)N(C)[C@@H](CC(C)C)C(=O)N[C@@H](CC(C)C)C(=O)N(C)[C@@H](CC(C)C)C(=O)N[C@@H](C)C(=O)N[C@@H](CC(C)C)C(=O)N2CCC[C@H]2C(=O)O[C@@H]1C	6.6
CC(=O)N1CCC[C@H]1C(=O)N(C)[C@H](CC(C)C)C(=O)N[C@@H]1C(=O)N[C@H](CC(C)C)C(=O)N[C@H](CC(C)C)C(=O)N(C)[C@H](CC(C)C)C(=O)N(C)[C@@H](C)C(=O)N[C@H](CC(C)C)C(=O)N2CCC[C@H]2C(=O)O[C@@H]1C	4.8
CC(=O)N1CCC[C@@H]1C(=O)N(C)[C@H](CC(C)C)C(=O)N[C@@H]1C(=O)N[C@H](CC(C)C)C(=O)N[C@H](CC(C)C)C(=O)N(C)[C@H](CC(C)C)C(=O)N(C)[C@H](C)C(=O)N[C@H](CC(C)C)C(=O)N2CCC[C@@H]2C(=O)O[C@@H]1C	0.83
CC(=O)N1CCC[C@H]1C(=O)N(C)[C@@H](CC(C)C)C(=O)N[C@@H]1C(=O)N(C)[C@@H](CC(C)C)C(=O)N[C@@H](CC(C)C)C(=O)N[C@@H](CC(C)C)C(=O)N(C)[C@@H](C)C(=O)N[C@@H](CC(C)C)C(=O)N2CCC[C@H]2C(=O)O[C@@H]1C	0.21
CC(=O)N1CCC[C@H]1C(=O)N[C@@H]1C(=O)N[C@H](CC(C)C)C(=O)N(C)[C@@H](CC(C)C)C(=O)N[C@H](CC(C)C)C(=O)N(C)[C@@H](CC(C)C)C(=O)N(C)[C@@H](C)C(=O)N[C@@H](CC(C)C)C(=O)N2CCC[C@@H]2C(=O)O[C@@H]1C	1.4
CC(=O)N1CCC[C@H]1C(=O)N[C@@H]1C(=O)N[C@H](CC(C)C)C(=O)N[C@@H](CC(C)C)C(=O)N[C@@H](CC(C)C)C(=O)N(C)[C@H](CC(C)C)C(=O)N[C@@H](C)C(=O)N[C@@H](CC(C)C)C(=O)N2CCC[C@@H]2C(=O)O[C@@H]1C	1
CC(=O)N1CCC[C@H]1C(=O)N[C@@H]1C(=O)N(C)[C@H](CC(C)C)C(=O)N[C@H](CC(C)C)C(=O)N(C)[C@H](CC(C)C)C(=O)N[C@H](CC(C)C)C(=O)N(C)[C@H](C)C(=O)N[C@@H](CC(C)C)C(=O)N2CCC[C@@H]2C(=O)O[C@@H]1C	1.6
CC(=O)N1CCC[C@H]1C(=O)N[C@@H]1C(=O)N[C@H](CC(C)C)C(=O)N[C@H](CC(C)C)C(=O)N[C@@H](CC(C)C)C(=O)N[C@H](CC(C)C)C(=O)N(C)[C@H](C)C(=O)N[C@@H](CC(C)C)C(=O)N2CCC[C@@H]2C(=O)O[C@@H]1C	2.3
CC(=O)N1CCC[C@@H]1C(=O)N(C)[C@@H](CC(C)C)C(=O)N[C@@H]1C(=O)N[C@@H](CC(C)C)C(=O)N(C)[C@@H](CC(C)C)C(=O)N[C@@H](CC(C)C)C(=O)N(C)[C@@H](C)C(=O)N[C@@H](CC(C)C)C(=O)N2CCC[C@@H]2C(=O)O[C@@H]1C	5.4
CC(=O)N1CCC[C@H]1C(=O)N(C)[C@H](CC(C)C)C(=O)N[C@@H]1C(=O)N(C)[C@@H](CC(C)C)C(=O)N(C)[C@@H](CC(C)C)C(=O)N[C@@H](CC(C)C)C(=O)N(C)[C@@H](C)C(=O)N[C@@H](CC(C)C)C(=O)N2CCC[C@@H]2C(=O)O[C@@H]1C	6.5
CC(=O)N1CCC[C@H]1C(=O)N(C)[C@H](CC(C)C)C(=O)N[C@@H]1C(=O)N(C)[C@@H](CC(C)C)C(=O)N(C)[C@H](CC(C)C)C(=O)N(C)[C@@H](CC(C)C)C(=O)N(C)[C@@H](C)C(=O)N[C@@H](CC(C)C)C(=O)N2CCC[C@H]2C(=O)O[C@@H]1C	4.2

Extract of 2 entries:

| structure (SMILES) | PAMPA (10^-6 cm/s) |
|---|---|
| CC(=O)N1CCC[C@H]1C(=O)N[C@@H]1C(=O)N[C@H](CC(C)C)C(=O)N[C@@H](CC(C)C)C(=O)N[C@@H](CC(C)C)C(=O)N(C)[C@H](CC(C)C)C(=O)N[C@@H](C)C(=O)N[C@@H](CC(C)C)C(=O)N2CCC[C@@H]2C(=O)O[C@@H]1C | 1 |
| CC(=O)N1CCC[C@H]1C(=O)N[C@@H]1C(=O)N[C@H](CC(C)C)C(=O)N[C@H](CC(C)C)C(=O)N[C@@H](CC(C)C)C(=O)N[C@H](CC(C)C)C(=O)N(C)[C@H](C)C(=O)N[C@@H](CC(C)C)C(=O)N2CCC[C@@H]2C(=O)O[C@@H]1C | 2.3 |